Most compounds without a hit are left out; they make up all but 4.2% or so of the library.
UUG fidelity: modulators of yeast start codon fidelity, primary screen, whole organism, S. cerevisiae, single point, plate reader | AID 602363, 2012 | S. cerevisiae UUG-firefly luciferase reporter, luminescence/redox ratio | activity score, % at 18.7 µM | hit rate 0.13% among 350,000;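 active = replicate mean at a twofold rise or more, about +100% in these data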;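 also: firefly luciferase made from a UUG start codon reports start codon fidelity; reporter light over untreated wells divided by growth signal over untreated wells; some hits fall short of that in this replicate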
HDAC3 inhib: HDAC3 deacetylase inhibitors, primary screen, biochemical, fluorescence, cell-free homogeneous; Histone deacetylase 3 (Homo sapiens), O15379; recombinant HDAC3, fluorogenic peptide/trypsin coupled; inhibition, % at 8.3 µM; hit rate 0.15% among 320,000; AID 2718, 2010; in the data active means inhibition above about 26%, passing the limit was not always enough; inconclusive means no clear call, values can overlap the other calls
MC4R antagonist: MC4R antagonists of cAMP signaling, primary screen, cell-based, TR-FRET, antagonist arm of biased-ligand search. Melanocortin receptor 4 (Homo sapiens), P32245. MC4R-expressing cells, MTII-stimulated cAMP, LANCE TR-FRET. inhibition, % at 6.5 µM. hit rate 0.48% among 360,000;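 active means inhibition above its plate's cutoff, the mean of tested wells on that plate plus 3 SD, cut at about 29% in these data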;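 further: 0% = Melanotan II alone and 100% = Melanotan II plus saturating MCL0020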
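Test system: U2OS cells stably expressing human melanocortin 4 receptor (MC4R); also added: Melanotan II challenge; compound: 6.5 µM single dose; timing: 30-min compound preincubation, 1-h Melanotan II challenge, 1-h detection, room temperature; signal: Eu-cAMP/anti-cAMP TR-FRET, emission 671 nm; repeats: one well per compound, no replicates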
NALP1 yeast inh: NALP1 inflammasome inhibitors in reconstituted yeast, colorimetric, S. cerevisiae, triplicate retest | S. cerevisiae NALP1/ASC/caspase-1 growth, X-gal OD620, 72 h | inhibition, % at 10 µM | hit rate 0.61% among 280,000 | AID 2071, 2009; in the data active means inhibition mostly above about 24%, no sharp cut-off; inactive means mostly below about 32%
MC4R barr agon: MC4R agonists recruiting beta-arrestin, primary screen, cell-based, luminescence, agonist arm of biased-ligand search; activation, % at 8.9 µM; hit rate 0.98% among 360,000; U2OS MC4R beta-arrestin complementation; percent of melanotan II response, DMSO zero; Melanocortin receptor 4 (Homo sapiens), P32245;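 active means activation above a per-plate cutoff, the mean activation of sample wells on that plate plus 3 SD, cut at about 8% in these data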
ALR inh: inhibitors of human sulfhydryl oxidase ALR; inhibition, % (no concentration beside the values); AID 485317; purified ALR, DTT oxidation, H2O2 HRP-luminol luminescence; 290,000 tested, 3.8% active; P55789;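 active means mean and each replicate at 75% or more; inconclusive means only one of the two met; inactive means neither met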;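 further: stock transfer was 7.5 nL into about 7.5 µL; 0% = neutral wells and 100% = wells with inactivated enzyme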
* marks the source's active call; other numbers are inactive results.

Sequences of proteins named here, by UniProt entry; tags and fusion partners are left off.
Melanocortin receptor 4 (Homo sapiens), P32245, UniProt P32245, whole entry, looked up: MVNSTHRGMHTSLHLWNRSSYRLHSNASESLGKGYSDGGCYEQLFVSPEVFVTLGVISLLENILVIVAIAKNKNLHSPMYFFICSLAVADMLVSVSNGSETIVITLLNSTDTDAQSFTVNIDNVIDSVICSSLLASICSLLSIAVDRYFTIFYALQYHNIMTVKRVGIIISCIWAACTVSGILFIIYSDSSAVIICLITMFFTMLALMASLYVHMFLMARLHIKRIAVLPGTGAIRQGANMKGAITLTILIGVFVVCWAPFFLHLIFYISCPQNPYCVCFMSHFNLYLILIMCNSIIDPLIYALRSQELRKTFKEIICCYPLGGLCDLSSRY

How did CCOC(=O)C1CCCN(c2c(NCCCN(CC)c3ccccc3)c(=O)c2=O)C1 (stereo not given) do in these assays?
UUG fidelity: -14; HDAC3 inhib: -5; MC4R antagonist: 1; NALP1 yeast inh: 28; MC4R barr agon: -1; ALR inh: 98*

How did CCOC(=O)N1CCC(Nc2c(NCCN3CCN(Cc4ccccc4)CC3)c(=O)c2=O)CC1 do in these assays?
HDAC3 inhib: 9; MC4R antagonist: 14; NALP1 yeast inh: 13; MC4R barr agon: 1; ALR inh: 2

What do the screens show for `CCOC(=O)N1CCC(Nc2c(NCCCN(CC)c3cccc(C)c3)c(=O)c2=O)CC1`?
UUG fidelity: -14; HDAC3 inhib: 3; MC4R antagonist: 3; NALP1 yeast inh: -26; MC4R barr agon: 1; ALR inh: 99*

What do the screens show for `CN1CCN(C(=O)C[C@H]2CC[C@@H]3[C@H](COC[C@H](O)CN3S(=O)(=O)c3cccc(F)c3)O2)CC1`?
UUG fidelity: -25

How did Cc1cccc(C)c1Nc1n[nH]c(=S)s1 do in these assays?
UUG fidelity: 15; MC4R antagonist: 13; MC4R barr agon: -4

What do the screens show for `Cc1cccc(Nc2n[nH]c(=S)s2)c1C`?
HDAC3 inhib: 7; MC4R antagonist: -14; NALP1 yeast inh: -7; MC4R barr agon: -2; ALR inh: 99*

How did COc1ccc(S(=O)(=O)N(C)C[C@H]2Oc3cc(C#CC4CC4)ccc3S(=O)(=O)N([C@@H](C)CO)C[C@H]2C)cc1 do in these assays?
UUG fidelity: -3

Results for CCCC(=O)Nc1ccc2c(c1)C(=O)N(C)[C@H]1CC[C@@H](CC(=O)O)O[C@H]1CO2 ?
UUG fidelity: -6

Results for Cc1noc(C)c1NC(=O)Nc1ccc2c(c1)CC(=O)N([C@@H](C)CO)C[C@@H](C)[C@H](CN(C)S(=O)(=O)c1ccccc1)O2 ?
UUG fidelity: 25

Results for Cc1cc(C(C)(C)C)cc(C)c1S(=O)(=O)N1CC(=O)Nc2ccccc21 ?
UUG fidelity: -3; HDAC3 inhib: 2; MC4R antagonist: 7; NALP1 yeast inh: inactive; MC4R barr agon: 8.7*; ALR inh: -14

Results for Cc1ccc(C(C)(C)C)cc1S(=O)(=O)N1CC(=O)Nc2ccccc21 ?
UUG fidelity: -3; HDAC3 inhib: 6; MC4R antagonist: -6; NALP1 yeast inh: 4; MC4R barr agon: 2; ALR inh: -5

How did C/C(=N/NC(=O)c1ccccc1)C1=C(O)CC(C)(C)CC1=O do in these assays?
HDAC3 inhib: 71*; MC4R antagonist: -3; NALP1 yeast inh: 6; MC4R barr agon: -1; ALR inh: inconclusive

How did CN1C(=O)c2cc(NS(=O)(=O)c3ccccc3Cl)ccc2OC[C@@H]2O[C@H](CC(=O)O)CC[C@H]21 do in these assays?
UUG fidelity: -6

How did Cn1c(CNc2ccc(F)cc2)nc2ccccc21 do in these assays?
UUG fidelity: -14; HDAC3 inhib: -1; MC4R antagonist: 8; NALP1 yeast inh: 6; MC4R barr agon: -1; ALR inh: 85*

What do the screens show for `Cn1c(=O)c2c(nc(CN3CCN(c4ccccc4)CC3)n2Cc2ccccc2Cl)n(C)c1=O`?
UUG fidelity: -7; MC4R antagonist: 6; NALP1 yeast inh: 22; MC4R barr agon: 0

Results for Cn1c(=O)c2c(nc(CN3CCN(c4ccccc4)CC3)n2Cc2c(F)cccc2Cl)n(C)c1=O ?
UUG fidelity: 2; HDAC3 inhib: 1; MC4R antagonist: 3; NALP1 yeast inh: -2; MC4R barr agon: 0; ALR inh: 97*

What do the screens show for `S=c1[nH]ncn1/N=C/c1cccc(Oc2ccccc2)c1`?
UUG fidelity: -33; HDAC3 inhib: 4; MC4R antagonist: 16; NALP1 yeast inh: -10; MC4R barr agon: -1; ALR inh: 99*

How did C[C@H](CO)N1C[C@H](C)[C@@H](CN(C)Cc2ccc(-c3ccccc3)cc2)Oc2ccc(NC(=O)CCCCCC(=O)Nc3ccccc3N)cc2CC1=O do in these assays?
UUG fidelity: 4

What do the screens show for `O=S(=O)(c1ccc2c(c1)OCCO2)C1CCC(S(=O)(=O)c2c(F)cccc2F)CC1` (stereo not given)?
UUG fidelity: -7; HDAC3 inhib: 40*; MC4R antagonist: 6; MC4R barr agon: 0; ALR inh: 1

How did COc1cccc(OC)c1C(=O)OCCCOC(=O)c1c(OC)cccc1OC do in these assays?
UUG fidelity: -9; HDAC3 inhib: 0; MC4R antagonist: 1; NALP1 yeast inh: 28*; MC4R barr agon: -2; ALR inh: -9

Three records picked at random from those above, as already listed:
How did Cc1cccc(C)c1Nc1n[nH]c(=S)s1 do in these assays?
UUG fidelity: 15; MC4R antagonist: 13; MC4R barr agon: -4

What do the screens show for `Cn1c(=O)c2c(nc(CN3CCN(c4ccccc4)CC3)n2Cc2ccccc2Cl)n(C)c1=O`?
UUG fidelity: -7; MC4R antagonist: 6; NALP1 yeast inh: 22; MC4R barr agon: 0

What do the screens show for `S=c1[nH]ncn1/N=C/c1cccc(Oc2ccccc2)c1`?
UUG fidelity: -33; HDAC3 inhib: 4; MC4R antagonist: 16; NALP1 yeast inh: -10; MC4R barr agon: -1; ALR inh: 99*

The results go on:
How did Cc1cccc(NC(=O)CSc2nc(C)nc3c2c(=O)n(C)c(=O)n3C)c1 do in these assays?
UUG fidelity: -18; MC4R antagonist: 11; NALP1 yeast inh: -8; MC4R barr agon: 2

How did Cc1csc(NC(=O)CSc2nc(C)nc3c2c(=O)n(C)c(=O)n3C)n1 do in these assays?
UUG fidelity: -8; HDAC3 inhib: -8; MC4R antagonist: 8; MC4R barr agon: 0; ALR inh: 98*

What do the screens show for `CC(C)(C)c1csc(NC(=O)CSC2=NCCS2)n1`?
UUG fidelity: -17; HDAC3 inhib: 3; MC4R antagonist: 12; NALP1 yeast inh: 4; MC4R barr agon: 0; ALR inh: 99*

How did Cc1csc(NC(=O)CSC2=NCCS2)n1 do in these assays?
UUG fidelity: -18; HDAC3 inhib: 1; MC4R antagonist: -1; NALP1 yeast inh: -4; MC4R barr agon: -1; ALR inh: 99*

Results for CCOC(=O)Cc1csc(NC(=O)CSc2nc(=O)[nH]c3c2CCCC3)n1 ?
UUG fidelity: 20; HDAC3 inhib: 0; MC4R antagonist: 8; MC4R barr agon: -2; ALR inh: 96*

How did COCC#Cc1cnc2c(c1)C(=O)N([C@@H](C)CO)C[C@@H](C)[C@@H](CN(C)C(=O)c1ccc(F)cc1)O2 do in these assays?
UUG fidelity: 5

Results for O=C(C1CCOCC1)N1C[C@H]2[C@@H](c3ccccc31)[C@@H](CO)N2C(=O)Cc1ccccc1 ?
UUG fidelity: -14

Results for CCOC(=O)c1sc(NC(=O)CSc2nccn2C)nc1C ?
UUG fidelity: -14; HDAC3 inhib: -6; MC4R antagonist: 1; NALP1 yeast inh: 10; MC4R barr agon: -4; ALR inh: 98*

What do the screens show for `CCOC(=O)Cc1csc(NC(=O)CSC2=NCCS2)n1`?
UUG fidelity: 0; HDAC3 inhib: 3; MC4R antagonist: 17; NALP1 yeast inh: -1; MC4R barr agon: -2; ALR inh: 99*

Screening data from PubChem.
